# Shown are actives, neighbours in structure and some others; about 2.5% of the full set was active somewhere.
# ClpP mod: qHTS Assay for Activators of ClpP; ATP-dependent Clp protease proteolytic subunit (Bacillus subtilis (strain 168)), P80244; purified B. subtilis ClpP, FRET peptide cleavage, 20 min; Potency, µM (titrated, usually from 57.5 µM), for inactives: at the top dose activity change, negative = active; 340,000 tested, 1.9% active; active = well fitted falling curve with a large enough effect; inconclusive = small, poorly fitted or top-dose-only effect; inactive = no such curve, though single readings can be large or run the other way; also: potency is read from the fitted curve at half-maximal effect; the source files actives as falling curves though it sought activators and does not explain the sign; nearly all actives have a fitted effect of over 65% in size
#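 Purified B. subtilis ClpP, 10 microg/mL final in Tris/HCl pH8 with KCl, BSA, glycerol and Tween-20, cleaved an Abz/nitrotyrosine-quenched decapeptide. Fluorescence (ex 320, em 430) was read at 0 and 20 min at room temperature. Delta was normalized to 5.8 microM ADEP and DMSO/no-enzyme controls.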
# Apoferritin bind: candidate novel general anesthetic via apoferritin binding; apoferritin/1-aminoanthracene competitive binding, fluorescence; Potency, µM (titrated, usually from 77.5 µM), for the others: top-dose activity change, negative = displacement, actives largely listed as inhibitors; 350,000 tested, 0.074% active; also: potency is read from the fitted curve at half-maximal effect; % is scaled to controls: 0 for no effect and ±100 for the full control effect; nearly all actives have a fitted effect of over 20% in size
#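 In PBS, apoferritin at 10 uM is loaded with 1-AMA from a 50% saturated solution. After 10 min of compound exposure at ambient temperature, reduced 535 nm fluorescence indicates probe displacement.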
# TrxR1 inh: blocks rat thioredoxin reductase 1. recombinant rTrxR1, NADPH fluorescence consumption, selenite substrate. Potency, µM (series often up to 114 µM), for the others: at the top dose activity change, negative = inhibition, actives largely listed as inhibitors. 390,000 tested, 1% active; also: potency is read from the fitted curve at half-maximal effect; % is scaled to controls: 0 for no effect and ±100 for the full control effect; nearly all actives have a fitted effect of over 65% in size
#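 Rat TrxR1 (90 nM in the dispensed reagent) was pre-reduced with 400 uM NADPH for 5 min at room temperature, then incubated with compound for 15 min. After 400 uM selenite was added, NADPH fluorescence (Ex 340/Em 450 nm) was followed for 8 min.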
# TrxR1 substrate: is turned over as a substrate by rat TrxR1; Potency, µM (top dose mostly 114 µM), inactives show at the top dose activity change, negative = substrate turnover; O89049; purified TrxR1 substrate turnover, NADPH consumption readout; 390,000 tested, 0.01% active; also: potency is read from the fitted curve at half-maximal effect; % is scaled to controls: 0 for no effect and ±100 for the full control effect; nearly all actives have a fitted effect of over 50% in size
#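 Rat TrxR1, dispensed at 90 nM, was prereduced with 400 uM NADPH (final) for 5 min at ~22 deg C, then incubated with compound 15 min before 400 uM selenite. A first-read NADPH fluorescence drop versus no-compound background flagged substrates.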
# miR-21 reporter: miR-21 reporter, rising signal | HeLa miR-21 FLuc reporter, luciferase, 48 h | Potency, µM (doses to about 38.3 µM), inactives show at the top dose reporter change, positive = more light | 340,000 tested, under 10 active | AID 2288; active = well fitted rising curve with a large enough effect; inconclusive = small, poorly fitted or top-dose-only effect; inactive = no such curve, though single readings can be large or run the other way;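 note: % of control where 0% means no effect; miR-21 action dims this reporter so a rising signal means less miR-21 action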
#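 Compounds were titrated across several concentrations (up to approximately 40 uM) and incubated 48 hours with HeLa miR-21-FLuc reporter cells (miR-21 target sequence downstream of FLuc, endogenous miR-21). Readout was firefly luciferase luminescence after lytic detection reagent.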
# * = called active by the depositor; ? = inconclusive; . = not tested or not shown; [ ] = remark or other dose. Unless noted, calls follow the shape of the dose curve; as a rule, active = well fitted curve in the direction sought with a large enough effect; inconclusive = small, poorly fitted or top-dose-only effect, or another doubt; inactive = no such curve, though single readings can be large; an effect the other way counts as inactive or inconclusive.
1	CCC(C)Sc1cc(C)c(C#N)c2nc3ccccc3n12 (configuration not stated)
2	CCOC(=O)CSc1cc(C)c(C#N)c2nc3ccccc3n12
3	COc1cc2c(NC3CCN(C)CC3)nc(N3CCCN(C)CC3)nc2cc1OCCCCN
4	Cc1cccc(Oc2ncnc3oc(-c4ccccc4)cc23)c1C
5	Cc1cc(Cl)ccc1Oc1ncnc2oc(-c3ccccc3)cc12
6	CCOc1ccc(N(CC(=O)Nc2ccccc2CC)S(=O)(=O)c2c(C)noc2C)cc1
7	Cc1cc(CN(C)C)c(O)c(C2(C)CCCCC2)c1
8	COc1ccc(C(=O)Cn2c(C)nc([N+](=O)[O-])c2Br)cc1

Sequences of proteins named here, by UniProt entry; tags and fusion partners are left off.
ATP-dependent Clp protease proteolytic subunit (Bacillus subtilis (strain 168)), P80244, UniProt P80244, whole entry, looked up: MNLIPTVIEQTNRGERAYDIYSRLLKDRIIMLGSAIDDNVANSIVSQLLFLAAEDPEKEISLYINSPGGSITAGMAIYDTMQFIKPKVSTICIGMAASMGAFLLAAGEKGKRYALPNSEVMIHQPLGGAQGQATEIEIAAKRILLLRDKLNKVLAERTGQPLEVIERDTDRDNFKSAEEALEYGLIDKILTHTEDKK

screen / no.,1,2,3,4,5,6,7,8
ClpP mod,3.0%,.,3.9%,28.2µM*,25.1µM*,-0.8%,22.4µM*,-1.6%
Apoferritin bind,11.4%,-0.3%,.,-2.0%,-5.3%,0.1%,-8.2%,4.2%
TrxR1 inh,3.9%[57.1 µM],1.12µM*,-18.4%,4.7%,16.4%[57.1 µM],21.9%,8.1%,17.8µM*
TrxR1 substrate,-7.0%,9.1%[57.1 µM],52.9%,12.2%,14.4%[57.1 µM],-5.2%,-1.4%[2.29 µM],13.9%[57.1 µM]
miR-21 reporter,-0.3%,-1.5%,.,-2.8%,-5.0%,27.1%,-4.8%,19.0%

9	Cc1nc([N+](=O)[O-])c(Br)n1Cc1ccc(Cl)c(Cl)c1
10	COc1ccc(C(=O)Cn2cc([N+](=O)[O-])nc2C)cc1
11	Cc1nc([N+](=O)[O-])c(Br)n1CC(=O)c1ccc(Cl)cc1
12	CCc1ccc(NC(=O)c2sc3ncnc(N(C)C4CCCCC4)c3c2C)cc1
13	COc1ccc(-c2cc(C(=O)Nc3ccn(Cc4ccc(C)cc4)n3)no2)cc1OC
14	CC1CN(C(=O)COC(=O)c2cnc(Cl)c(Cl)c2)CC(C)O1 (configuration not stated)
15	FC(F)(F)c1nnc2sc(-c3ccccn3)nn12
16	c1ccc(Cc2nnc3sc(-c4ccccn4)nn23)cc1

screen / no.,9,10,11,12,13,14,15,16
ClpP mod,0.3%,-0.8%,-7.7%,-16.0%,-2.6%,31.6µM*,2.4%,-0.5%
Apoferritin bind,?,5.3%,-20.8%,72.6%,-9.9%,.,5.1%,-4.4%
TrxR1 inh,10µM*,-7.3%,2.51µM*,12.6%[57.1 µM],14.9%,-10.4%,12.8%[57.1 µM],?
TrxR1 substrate,-3.8%,-2.5%,11.3%[57.1 µM],-7.1%[57.1 µM],10.4%,-11.1%,-0.1%[57.1 µM],-2.8%
miR-21 reporter,?,-0.6%,?,2.1%,-10.0%,.,-2.3%,-23.1%

17	COc1ccccc1-c1nn2c(-c3ccc(C(C)(C)C)cc3)nnc2s1
18	COc1ccccc1-c1nn2c(C(F)(F)F)nnc2s1
19	COc1ccccc1-c1nnc2sc(-c3ccc(N(C)C)cc3)nn12
20	CCOc1ccccc1-c1nn2c(Cc3ccccc3)nnc2s1
21	CN(C)c1ccc(-c2nn3c(-c4ccccc4Cl)nnc3s2)cc1
22	Cc1cc(C)n(-c2nc3cc(Cl)ccc3nc2N2CCN(c3ccccc3F)CC2)n1
23	CCCS(=O)(=O)NCCc1csc2nc(-c3ccc(OC)cc3)nn12
24	Cn1nnnc1SC1CC(=O)N(c2ccccc2)C1=O (configuration not stated)

screen / no.,17,18,19,20,21,22,23,24
ClpP mod,.,12.6µM*,25.1µM*,25.1µM*,15.8µM*,-7.7%,1.3%,.
Apoferritin bind,-11.0%,-5.2%,9.0%,?,-0.3%,87.3%,-17.8%,-15.1%
TrxR1 inh,.,?,4.4%,-2.7%,102.0%,13.3%,4.5%[57.1 µM],17.8µM*
TrxR1 substrate,.,-0.8%,32.6%,15.3%,128.5%,0.8%,1.0%[57.1 µM],11.9%[57.1 µM]
miR-21 reporter,0.6%,-0.5%,20.1%,-6.6%,19.4%,5.0%,-9.6%,2.8%

# Quoted from the listing:
# compound 16 – TrxR1 substrate: -2.8%
# compound 4 – miR-21 reporter: -2.8%
# compound 6 – TrxR1 substrate: -5.2%
# compound 1 – Apoferritin bind: 11.4%

# (more compounds)
25	O=C1CC(Sc2nnnn2C2CCCCC2)C(=O)N1c1ccccc1 (configuration not stated)
26	Cc1cc(C)cc(N2C(=O)CC(Sc3nnnn3-c3ccccc3)C2=O)c1 (configuration not stated)
27	COc1cccc(-n2c(=O)c3c(C)c(C)sc3n(CC(=O)Nc3ccccc3OC)c2=O)c1
28	Cc1ccc(S(=O)(=O)C=CS(=O)(=O)c2ccc(C)cc2)cc1
29	O=S(=O)(/C=C/C=C/S(=O)(=O)c1ccccc1)c1ccccc1
30	CC(C)(C)OC(=O)N1CCC(c2nnc(SCc3cccc(Cl)c3)o2)CC1
31	O=C(NCc1cccnc1)C1CCN(C(=O)c2ccc(Cl)cc2Cl)CC1
32	O=C(NCc1cccnc1)C1CCC(c2ccc(Cl)cc2)CC1 (configuration not stated)

screen / no.,25,26,27,28,29,30,31,32
ClpP mod,-0.1%,-3.0%,2.9%,2.7%,-3.0%,?,0.4%,28.2µM*
Apoferritin bind,-1.7%,-6.7%,-3.2%,.,.,65.0%,-10.5%,-7.9%
TrxR1 inh,?,11.2µM*,15.0%,.,2µM*,15.3%,-1.7%[57.1 µM],5.1%[57.1 µM]
TrxR1 substrate,13.1%,15.7%,0.3%,.,12.4%[57.1 µM],7.7%[11.4 µM],10.8%[57.1 µM],4.2%[57.1 µM]
miR-21 reporter,?,?,2.7%,.,.,?,-9.3%,23.9%

33	O=C(N/N=C/c1ccc(Cl)cc1)c1cc2c(s1)-c1ccccc1CC2
34	CCCOC(=O)C1=C(C)NC2=C(C(=O)CCC2)C1c1cccc(OC)c1OC (configuration not stated)
35	CCCC(=O)Nc1cc(C)c2c(=O)oc3ccccc3c2n1
36	CCCc1cc2c(c(NC(C)=O)n1)c(=O)oc1ccccc12
37	CC(=O)C(Sc1nn(C)c(=S)s1)C(=O)Nc1ccccc1 (configuration not stated)
38	COc1ccccc1C(=O)N/N=C(\C)c1ccc(NC(=O)C2CC2)cc1
39	CCC(Nc1ccc(-c2nc(-c3ccco3)no2)cc1[N+](=O)[O-])c1ccccc1 (configuration not stated)
40	Cc1ccc(NC(=O)CCCN2C(=O)/C(=C/C=C/c3ccccc3)SC2=S)cc1

screen / no.,33,34,35,36,37,38,39,40
ClpP mod,28.2µM*,25.1µM*,-4.2%,31.6µM*,-1.1%,28.2µM*,-2.7%,0.9%
Apoferritin bind,-11.8%,132.5%,-4.8%,-2.0%,?,-6.1%,-5.3%,5.4%
TrxR1 inh,13.0%[57.1 µM],-15.1%[57.1 µM],6.7%,12.4%,22.4µM*,4.0%[57.1 µM],-1.5%,?
TrxR1 substrate,15.9%[57.1 µM],23.5%[57.1 µM],0.0%,16.0%,3.7%,4.7%,-6.3%,-15.9%
miR-21 reporter,0.1%,-3.2%,7.8%,-22.4%,-50.0%,-7.0%,-5.3%,-0.7%

41	O=C(O)C(Cc1ccccc1)N1C(=O)/C(=C/C=C/c2ccco2)SC1=S (configuration not stated)
42	O=C(O)CCN1C(=O)/C(=C/c2ccc(-c3nc4ccccc4s3)o2)SC1=S
43	O=C(NN1C(=O)/C(=C/C=C/c2ccco2)SC1=S)c1ccccc1O
44	O=C(O)CCCN1C(=O)/C(=C/C=C/c2ccco2)SC1=S
45	O=C(O)CCCN1C(=O)/C(=C\c2ccc(-c3nc4ccccc4s3)o2)SC1=S
46	COc1ccc(/C=C2\SC(=S)N(C(Cc3ccccc3)C(=O)O)C2=O)cc1 (configuration not stated)
47	O=C(CCCN1C(=O)S/C(=C/C=C/c2ccccc2)C1=O)Nc1ccc(C(=O)O)cc1

screen / no.,41,42,43,44,45,46,47
ClpP mod,.,-2.3%,.,.,-0.9%,.,-0.6%
Apoferritin bind,-8.9%,-5.1%,2.1%,3.5%,27.9%,?,-8.5%
TrxR1 inh,20µM*,?,56.2µM*,35.5µM*,50.1µM*,6.7%[57.1 µM],79.4µM*
TrxR1 substrate,-13.8%,-23.9%,-17.5%,-22.9%,-8.1%,-1.6%[57.1 µM],-5.0%
miR-21 reporter,0.4%,-13.3%,1.4%,12.6%,-25.8%,-3.8%,-2.8%

# Profiles from above. Values in the order: ClpP mod	Apoferritin bind	TrxR1 inh	TrxR1 substrate	miR-21 reporter
# `O=C(O)CCCN1C(=O)/C(=C\c2ccc(-c3nc4ccccc4s3)o2)SC1=S` is entered as -0.9%	27.9%	50.1µM*	-8.1%	-25.8%
# `COc1ccc(/C=C2\SC(=S)N(C(Cc3ccccc3)C(=O)O)C2=O)cc1` (configuration not stated) is entered as .	?	6.7%[57.1 µM]	-1.6%[57.1 µM]	-3.8%
